The values below are quoted from earlier work in patent US6028083A, “Esters of (+)-α-(2,3-dimethoxyphenyl)-1-[2-(4-fluorophenyl) ethyl]-4-piperidinemethanol” (Hoechst Marion Roussel, Inc., priority 1997, dated 2000).

The data set has as its system 5HT2A receptor. The following applies: literature (Pranzatelli 1990; Wettstein et al. 1996); cited from earlier work.

`CC[C@@H](CO)NC(=O)[C@@H]1C=C2c3cccc4c3c(cn4C)C[C@H]2N(C)C1` [methysergide]: the “block of the behavioral effects of DOI” value is given as “dose-dependently block the behavioral effects of DOI”.

Regarding `CN1CCN2c3ccccc3Cc3ccccc3C2C1` (centres unmarked) [mianserin], the “block of the behavioral effects of DOI” value is “dose-dependently block the behavioral effects of DOI”.
